Results taken from patent publication US20060052435A1, “Selective dopamin d3 receptor agonists for the treatment of sexual dysfunction” (priority 2001, published 2006).

Chains of the proteins cited; added tags and fusions are not shown.
UniProt P35462, whole entry G9S: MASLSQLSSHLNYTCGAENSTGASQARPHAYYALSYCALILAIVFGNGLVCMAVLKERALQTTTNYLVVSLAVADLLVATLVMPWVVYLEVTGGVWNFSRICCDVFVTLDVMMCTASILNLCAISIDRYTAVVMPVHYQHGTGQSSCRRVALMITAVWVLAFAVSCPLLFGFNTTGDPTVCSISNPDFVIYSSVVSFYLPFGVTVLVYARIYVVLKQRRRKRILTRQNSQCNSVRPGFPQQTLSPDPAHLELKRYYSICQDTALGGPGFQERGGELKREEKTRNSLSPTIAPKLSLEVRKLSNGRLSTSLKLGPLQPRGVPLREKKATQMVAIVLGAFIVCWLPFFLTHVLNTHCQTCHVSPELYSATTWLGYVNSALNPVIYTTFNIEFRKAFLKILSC

Biological target: human recombinant D3 (hD3) receptors (Homo sapiens, UniProt P35462, G9S)

- selectivity for hD3 over hD2s receptors (binding): 80 fold
- Affinity estimates (pKi ± s.e.m.) hD3 (n = 3-11): 8.7 ± 0.13
SMILES: CCCN(CCC)[C@@H]1CCc2cc(CS(=O)(=O)c3ccc(OC)cc3)ccc2C1 [GR218231]
